Laboratory results published in PubChem BioAssay AID651725 (National Center for Advancing Translational Sciences (NCATS), 2012).
This is a selection; strong and weak results do not stand in their true shares. The source made the active and inactive calls. No stated cut-off is given here; in the data, active means activity change below about -65%; inconclusive means mostly about -30% to -63%; inactive means weaker than that.
On the % scale 0 is the no-effect control and ±100 the full control effect.

Amino acid sequences for entries named in this document (tags omitted).
UniProt Q15475, whole entry: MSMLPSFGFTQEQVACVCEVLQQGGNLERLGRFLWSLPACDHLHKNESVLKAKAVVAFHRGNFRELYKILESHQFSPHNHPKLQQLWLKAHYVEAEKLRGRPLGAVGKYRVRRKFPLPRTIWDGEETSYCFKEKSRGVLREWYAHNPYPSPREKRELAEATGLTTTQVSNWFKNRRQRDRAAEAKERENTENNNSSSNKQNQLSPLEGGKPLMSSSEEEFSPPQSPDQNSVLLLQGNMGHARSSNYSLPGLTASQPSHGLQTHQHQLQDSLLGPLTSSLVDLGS

These compounds were tested against Homeobox protein SIX1 (Homo sapiens) + Protein phosphatase EYA2 (Homo sapiens) (UniProt Q15475+O00167) (assay: qHTS Assay for Inhibitors of the Six1/Eya2 Interaction). Settings: AlphaScreen GST-Six1/His-Eya2 binding, biochemical; stronger effect = lower value.
Summary of the method: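 Six1/Eya2 binding was read as AlphaScreen signal after compounds were pinned into GST-Six1 plus His-tagged Eya2 (5X stock 250/500 nM) in pH 8.0 Tris/NaCl/TCEP buffer, beads added, then incubated 1 h, 37 C, dark.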
In the case of `Cc1c2c(nc3ccccc13)SC(C(Cl)Cl)C2` (stereo not given), the activity change is reported as inactive: 8.72%.
`COc1cc(I)ccc1[As](=O)(O)O` was tested, and the activity change was inactive: 2.39%.
For `COc1ccc2nc(NP(=O)(c3ccccc3)c3ccccc3)sc2c1`, the activity change was inactive: -2.47%.
For `O=P1(N(CCCl)CCCl)Nc2ccccc2N1`, the activity change was inactive: 3.01%.
For `O=P1(N(CCCl)CCCl)OCCCN1CCCl` (stereo not given), the activity change was inactive: 6.21%.
With `COc1ccccc1-c1ccccn1.O=[N+]([O-])c1cc([N+](=O)[O-])c(O)c([N+](=O)[O-])c1` the activity change was inactive: 6.05%.
With `COc1ccc(N/C(=N/P(=O)(N2CCOCC2)N2CCOCC2)N2CCOCC2)cc1` the activity change was inactive: 1.43%.
With `O=[N+]([O-])c1cc(Oc2ccc([N+](=O)[O-])cc2C(F)(F)F)cc([N+](=O)[O-])c1` the activity change was inactive: 2.72%.
In the case of `O=[N+]([O-])c1ccc(-c2cc([N+](=O)[O-])c(O)c([N+](=O)[O-])c2)cc1`, the activity change is reported as inactive: -14.6%.
With `COc1cc(C(=O)NCC2(N3CCOCC3)CCCCC2)ccc1OCC(C)C` the activity change was inactive: 0.308%.
In the case of `O=[As](O)(c1ccc(O)cc1)c1ccccc1O`, the activity change is reported as inactive: 5.4%.
In the case of `C[As](=O)(O)c1cccc(C(=O)O)c1`, the activity change is reported as inactive: 15.6%.
For `O=[N+]([O-])c1cc([N+](=O)[O-])c(Nc2cccnc2)c([N+](=O)[O-])c1`, the activity change was inactive: -15.3%.
For `O=[N+]([O-])c1ccc2c(c1)C=Nc1ccccc1O2`, the activity change was inactive: -27.7%.
`Cc1ccc2nc3c(c(C)c2c1)CC(C(Cl)Cl)S3` (stereo not given) was tested, and the activity change was inactive: 0%.
For `Cc1cccc(C)c1OP(C)(N)=O` (stereo not given), the activity change was inactive: 10.7%.
With `[N-]=[N+]=NC1CCCCC1NC(=O)c1cc([N+](=O)[O-])cc([N+](=O)[O-])c1` (stereo not given) the activity change was inactive: 1.05%.
`Cc1ccc(OP(=O)(Nc2ccc([N+](=O)[O-])cn2)Oc2ccc(C)cc2)cc1` was tested, and the activity change was inactive: 1.34%.
For `CC(C)(C)c1ccc(OP(C)(=O)Nc2ccc(SC(F)(F)F)cc2)cc1` (stereo not given), the activity change was inactive: -7.8%.
In the case of `COC(=O)C1(C)COP(=O)(N2CCCCCC2)OC1` (stereo not given), the activity change is reported as inactive: 2.81%.
`Cc1ccc(NP(C)(=O)Oc2ccccc2)c(C)c1` (stereo not given) was tested, and the activity change was inactive: 0.187%.
With `CC(C)c1ccc(OP(=O)(Nc2ccccn2)Oc2ccccc2F)cc1` (stereo not given) the activity change was inactive: 6.18%.
In the case of `COc1ccccc1OP(C)(=O)Nc1ccc(C)cc1` (stereo not given), the activity change is reported as inactive: 8.46%.
For `ClCCSc1nnc(-c2cccnc2)o1`, the activity change was inactive: -1.34%.
In the case of `CCOC(=O)c1ccc(NP(C)(=O)Oc2ccccc2)cc1` (stereo not given), the activity change is reported as inactive: 3.82%.
In the case of `Cc1cc(C)cc(OP(C)(N)=O)c1` (stereo not given), the activity change is reported as inactive: 7.19%.
For `COc1ccc(OP(C)(=O)Nc2cccc(F)c2)cc1` (stereo not given), the activity change was inactive: -4.34%.
With `O=[N+]([O-])c1cc([N+](=O)[O-])c(-c2ccn[nH]2)s1` the activity change was inactive: -7.41%.
In the case of `COc1ccccc1OP(C)(=O)Nc1cc(Cl)ccc1C` (stereo not given), the activity change is reported as inactive: -1.44%.
For `CC(C)NC(=O)NP(=O)(Oc1ccccc1)Oc1ccccc1`, the activity change was inactive: 3.07%.
For `CCN(CC)C(=S)SC(NC=O)C(Cl)(Cl)Cl` (stereo not given), the activity change was inactive: 5.46%.
`O=C(OC1CN2CCC1CC2)c1cccc2[nH]cnc12` (stereo not given) was tested, and the activity change was inactive: -2.41%.
For `O=P(Nc1nccs1)(Oc1ccccc1)Oc1ccccc1`, the activity change was inactive: 2.64%.
With `O=P(Nc1nccs1)(c1ccccc1)c1nc2ccccc2s1` (stereo not given) the activity change was inactive: -4.75%.
For `CCOP1(=S)c2c(C)nn(CCC#N)c2N=C(c2ccccc2F)N1C` (stereo not given), the activity change was inactive: -1.05%.
In the case of `O=C(O)COc1ccc([As](=O)(O)O)cc1[N+](=O)[O-]`, the activity change is reported as inactive: 8.03%.
With `NC(=O)Nc1ccc([As](=O)(O)O)cc1` the activity change was inactive: 3.09%.
For `CC1=NCCc2c1[nH]c1ccccc21.O=[N+]([O-])c1cc([N+](=O)[O-])c(O)c([N+](=O)[O-])c1`, the activity change was inactive: -11.4%.
For `CN(C(=O)Cc1ccc(Cl)c(Cl)c1)[C@H]1CC[C@@]2(CCCO2)C[C@@H]1N1CCCC1`, the activity change was inactive: 5.92%.
For `O=[N+]([O-])c1ccc2c(c1)nnn2O`, the activity change was inactive: -6.52%.
For `CN(C)C(=O)c1cc([N+](=O)[O-])cc2c1-c1c(cc([N+](=O)[O-])cc1[N+](=O)[O-])C2=O`, the activity change was inactive: -28.4%.
`CCOP1(=S)c2c(C)nn(CCC#N)c2N=C(c2ccc(F)cc2)N1C` (stereo not given) was tested, and the activity change was inactive: -3.86%.
With `CN(C(=O)Cc1ccccc1)[C@@H]1CC[C@]2(CCCO2)C[C@H]1N1CCCC1` the activity change was inactive: 4.44%.
For `N#CCCN(C(=O)COC(=O)C(O)(c1ccccc1)c1ccccc1)c1ccc(F)cc1`, the activity change was inactive: -11.6%.
`COc1ccccc1OP(C)(=O)Nc1cccc(Br)c1` (stereo not given) was tested, and the activity change was inactive: -0.188%.
In the case of `CS(=O)(=O)c1ccc(Cl)c(NC(=O)COC(=O)C(O)(c2ccccc2)c2ccccc2)c1`, the activity change is reported as inactive: -2.23%.
In the case of `O=[As](O)(O)c1cccnc1`, the activity change is reported as inactive: 6.09%.
In the case of `COc1cc(C(=O)NCC2(N3CCOCC3)CCCCC2)cc(Cl)c1OC(C)C`, the activity change is reported as inactive: -0.727%.
`O=C(OC1CN2CCC1CC2)c1ccc(Cl)cc1` (stereo not given) was tested, and the activity change was inactive: -1.82%.
`CCOC(=O)c1ccc(NP(C)(=O)Oc2cc(C)cc(C)c2)cc1` (stereo not given) was tested, and the activity change was inactive: 0.0457%.
`Cc1cc(C)cc(OP(C)(=O)Nc2ccc(C)cc2C)c1` (stereo not given) was tested, and the activity change was inactive: -0.792%.
`Cc1cccc(OCC(=O)OC2CN3CCC2CC3)c1` (stereo not given) was tested, and the activity change was inactive: 15.2%.
With `O=[As](O)(c1cccc(O)c1)c1cccc(O)c1` the activity change was inactive: 4.05%.
`Cc1ccc(C)c(NP(C)(=O)Oc2ccccc2)c1` (stereo not given) was tested, and the activity change was inactive: 5.61%.
In the case of `CCCOP(=S)(Nc1nc(N)cc(=O)[nH]1)OCCC`, the activity change is reported as inactive: 2.57%.
For `Nc1cccc2c([As](=O)(O)O)cccc12`, the activity change was inactive: 4.92%.
In the case of `Cc1cc(C)cc(OP(C)(=O)Nc2ccccn2)c1` (stereo not given), the activity change is reported as inactive: 3.8%.
For `CP(=O)(Nc1cccc(Br)c1)Oc1ccccc1` (stereo not given), the activity change was inactive: -4.17%.
`CCOP(=O)(Nc1cccc2ccccc12)OCC` was tested, and the activity change was inactive: 2.67%.
In the case of `CCOP(=O)(Nc1ccc(C)cn1)OCC`, the activity change is reported as inactive: -0.934%.
With `CN(CCCl)Cc1cc(Cl)c(NC2=NCCN2)c(Cl)c1` the activity change was inactive: 9.74%.
In the case of `O=[N+]([O-])c1cc([N+](=O)[O-])c(-n2nnc3ccccc32)c([N+](=O)[O-])c1`, the activity change is reported as inactive: -4.51%.
For `CCOP(=O)(NC(=NC(C)c1ccccc1)NC(C)c1ccccc1)OCC` (stereo not given), the activity change was inactive: 2.88%.
`O=P1(Nc2ccccn2)COc2ccccc2OC1` was tested, and the activity change was inactive: 11.7%.
For `CCC1=CC2Cc3nc4ccc(Cl)cc4c(N)c3C(C1)C2` (stereo not given), the activity change was inactive: -10%.
`O=C(O)C(O)c1ccc(N(CCCl)CCCl)cc1.c1ccncc1` (stereo not given) was tested, and the activity change was inactive: 0.777%.
In the case of `CC(C)(C)C(=O)NC(Sc1ncccn1)C(Cl)(Cl)Cl` (stereo not given), the activity change is reported as inactive: 2.38%.
For `O=P1(N(CCCl)CCCl)NCCC(C(F)(F)F)O1` (stereo not given), the activity change was inactive: -1.68%.
`Clc1n[nH]nc1-c1nn[nH][15n]1` was tested, and the activity change was inactive: -8.37%.
`CN(Cc1cccnc1)C(=O)COc1ccc(Cl)c(Cl)c1.O=[N+]([O-])c1cc([N+](=O)[O-])c(O)c([N+](=O)[O-])c1` was tested, and the activity change was inactive: -12.1%.
In the case of `COc1ccccc1CNC(=O)COC(=O)C(O)(c1ccccc1)c1ccccc1`, the activity change is reported as inactive: 1.74%.
In the case of `CC1(CBr)Cn2c(nc3ccccc3c2=O)S1` (stereo not given), the activity change is reported as inactive: 14.8%.
`Cc1nc2ccc3ccccc3c2s1.O=[N+]([O-])c1cc([N+](=O)[O-])c(O)c([N+](=O)[O-])c1` was tested, and the activity change was inactive: -0.168%.
In the case of `Cc1ccc(S(=O)(=O)N(CCCN)CCCc2c(C)nc(N)[nH]c2=O)cc1.O=[N+]([O-])c1cc([N+](=O)[O-])c(O)c([N+](=O)[O-])c1`, the activity change is reported as inactive: -6.39%.
In the case of `CC(C)/C=N\N=C(\N)N[N+](=O)[O-]`, the activity change is reported as inactive: 0%.
For `CN(C(=O)Cc1ccc(Cl)c(Cl)c1)[C@@H]1CCCC[C@H]1N1CCCC1`, the activity change was inactive: -8.07%.
With `COc1cc(C2NCCC3(OCCO3)C2(C)C)cc(OC)c1OC.O=[N+]([O-])c1cc([N+](=O)[O-])c(O)c([N+](=O)[O-])c1` (stereo not given) the activity change was inactive: -0.141%.
In the case of `CC1CCC(C(C)C)C(OP(=O)(Nc2ccccn2)c2ccccc2)C1` (stereo not given), the activity change is reported as inactive: 0.3%.
For `Cc1ccc(C(=O)OC2CN3CCC2CC3)cc1` (stereo not given), the activity change was inactive: -0.245%.
In the case of `Cc1nn(-c2ccccc2)c2c1P(=O)(N1CCOCC1)N(C)C(c1ccccc1)=N2` (stereo not given), the activity change is reported as inactive: 3.14%.
With `CCCC1OP(=O)(Nc2ccccc2)OCC1CC` (stereo not given) the activity change was inactive: 5.9%.
For `O=C(/C=C/c1ccccc1)OC1CN2CCC1CC2` (stereo not given), the activity change was inactive: 24.4%.
For `CN(C)C1(CNC(=O)c2ccc(S(C)(=O)=O)cc2)CCCCC1`, the activity change was inactive: 1.54%.
In the case of `CC1=C2N=C(C=C3N=C(C(C)=C4[N-][C@@](C)([C@@H]5N=C1[C@](C)(CCC(=O)NC[C@@H](C)OP(=O)([O-])O[C@H]1[C@@H](O)[C@@H](n6cnc7cc(C)c(C)cc76)O[C@@H]1CO)[C@H]5CC(N)=O)[C@@](C)(CC(N)=O)[C@@H]4CCC(N)=O)[C@@](C)(CC(N)=O)[C@@H]3CCC(N)=O)C(C)(C)[C@@H]2CCC(N)=O.[C-]#N.[Co+3]`, the activity change is reported as inactive: 1.86%.
In the case of `O=[N+]([O-])c1cc([N+](=O)[O-])c(Nc2nnnn2CCO)c([N+](=O)[O-])c1`, the activity change is reported as inactive: -23.6%.
In the case of `COc1ccccc1OP(C)(=O)Nc1c(C)cccc1C` (stereo not given), the activity change is reported as inactive: -2.01%.
In the case of `CN1CCCCC1COC(=O)C1(O)c2ccccc2CCc2ccccc21` (stereo not given), the activity change is reported as inactive: -5.78%.
For `O=P1(Nc2ncccn2)COc2ccccc2OC1`, the activity change was inactive: -2.73%.
`Cc1ccc(OCC(=O)OC2CN3CCC2CC3)cc1` (stereo not given) was tested, and the activity change was inactive: -2.37%.
For `O=[As](O)(c1cccs1)c1cccs1`, the activity change was inactive: -0.747%.
In the case of `O=P1(Nc2ccc(Br)cn2)COc2ccccc2OC1`, the activity change is reported as inactive: 5.1%.
For `NS(=O)(=O)c1cccc(NC(=O)COC(=O)C(O)(c2ccccc2)c2ccccc2)c1`, the activity change was inactive: 10.6%.
For `CCCOc1ccc(NP(C)(=O)Oc2ccc(Cl)cc2)cc1` (stereo not given), the activity change was inactive: 6.97%.
`Nc1cccc([As](=O)(O)c2ccccc2)c1` was tested, and the activity change was inactive: 4.91%.
In the case of `CP(=O)(Nc1ccc(SC(F)(F)F)cc1)Oc1ccccc1` (stereo not given), the activity change is reported as inactive: 0.225%.
